From doi:10.1101/538157v1 (biorxiv, 2019) come the findings set out here.

Chains of the proteins cited; added tags and fusions are not shown. Residues count along the entry.
UniProt Q96RR4, 161-449: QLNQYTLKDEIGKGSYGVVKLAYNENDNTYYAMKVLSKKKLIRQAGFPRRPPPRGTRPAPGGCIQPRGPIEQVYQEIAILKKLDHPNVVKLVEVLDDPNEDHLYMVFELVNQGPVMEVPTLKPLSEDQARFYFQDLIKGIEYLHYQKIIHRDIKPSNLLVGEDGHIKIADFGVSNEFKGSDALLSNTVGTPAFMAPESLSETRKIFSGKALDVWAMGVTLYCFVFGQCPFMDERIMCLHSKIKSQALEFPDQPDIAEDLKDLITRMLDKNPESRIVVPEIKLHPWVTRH

The assay addresses CAMKK2-KD (kinase domain of CAMKK2) (Homo sapiens, UniProt Q96RR4). Briefly: biochemical. As to conditions: read-out: ΔTm (°C) 96-well.

Consider `COC(=O)[C@@]1(O)C[C@H]2O[C@]1(C)n1c3ccccc3c3c4c(c5c6ccccc6n2c5c31)C(=O)NC4` [K252a], for which the ΔTm at 12 µM amounted to 18.3 °C.
